The values below come from patent publication US5643954A, “Method of preventing and alleviating stress in a healthy mammal in need thereof” (priority 1993, dated 1997).

In one series the test system is mice. The conditions noted are these: intragastric introduction.
The next series deals with rats. The conditions noted are these: intragastric introduction.
A further series relates to animal's internal organs. The conditions noted are these: about 200 mg/kg intragastric over 60 days.
Another series can be described thus: overall safety. The conditions noted are these: in vivo.

As to aminoacetic acid [claimed preparation], the LD50 result with mice and in the series with rats was “over 3000 mg/kg of animal weight” each time. The “morphological and pathological changes of internal organs” value with animal's internal organs is “did not discover morphological and pathological changes”. Further, in “overall safety”, the safety result is “absolutely safe, exhibits mild action and has no contraindications”.
